± gives the expanded uncertainty stated by the source.
Assays:
[1] = Crystal; DTA
[2] = Molar enthalpy of transition or fusion; settings: Crystal; DSC

## O=Cc1ccc([N+](=O)[O-])cc1 [4-nitrobenzaldehyde]
[1]
  Normal melting temperature: 107.20 ± 1.1 °C
[2]
  Molar enthalpy of transition or fusion: 6 ± 0.239 kcal/mol

— the NIST ThermoML archive (doi:10.1016/j.jct.2016.09.012)
